Measurements taken from patent US12433883B2, “Covalent modification and controlled delivery of mu opioid receptor antagonists” (Allegheny Singer Research Institute, priority 2019, dated 2025).

Test system: fentanyl-induced analgesia in mice
Experiment: Hot plate assay, block of fentanyl-induced analgesia
Details: free naloxone 10 mg/kg, fentanyl 0.2 mg/kg

## C=CCN1CC[C@]23c4c5ccc(O)c4O[C@H]2C(=O)CC[C@@]3(O)[C@H]1C5 [free naloxone, naloxone]
  effect on fentanyl analgesia in hot plate assay: acutely block fentanyl (0.2 mg/kg) analgesia
